Literature values in patent US6552168B1, “Gamma-ketoacid tetrapeptides as inhibitors of caspase-3” (Merck Frosst Canada & Co., priority 1998, dated 2003).

Legend:
caspase-1 = target: T1, caspase-1 (Homo sapiens, UniProt P29466)
T1 sequence (P29466 120-297 limits assumed): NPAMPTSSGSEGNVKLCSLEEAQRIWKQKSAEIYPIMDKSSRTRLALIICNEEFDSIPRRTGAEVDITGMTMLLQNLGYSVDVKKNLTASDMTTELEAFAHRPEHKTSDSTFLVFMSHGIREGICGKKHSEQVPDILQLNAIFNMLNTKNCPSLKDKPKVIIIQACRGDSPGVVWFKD
T1 sequence (P29466 317-404 limits assumed): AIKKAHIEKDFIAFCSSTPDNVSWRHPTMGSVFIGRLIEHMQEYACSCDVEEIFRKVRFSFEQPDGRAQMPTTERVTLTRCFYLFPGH

caspase-3 = target: T2, caspase-3 (Homo sapiens, UniProt P42574)
T2 sequence (P42574 29-175 limits assumed): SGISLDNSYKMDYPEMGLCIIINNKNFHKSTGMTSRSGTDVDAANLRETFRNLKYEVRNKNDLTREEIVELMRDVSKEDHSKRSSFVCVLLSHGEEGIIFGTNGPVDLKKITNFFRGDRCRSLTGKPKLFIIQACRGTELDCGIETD
T2 sequence (P42574 176-277 limits assumed): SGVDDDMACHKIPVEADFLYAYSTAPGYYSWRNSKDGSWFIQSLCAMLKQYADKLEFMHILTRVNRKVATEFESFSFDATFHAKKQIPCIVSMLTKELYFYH

- Ki (caspase-3): < 1 nM
- kon caspase-3 (caspase-3; slow-binding time-dependent inhibition): 130000 M⁻¹ s⁻¹
Substance: Ac-DEVD-CHO
- inhibition of caspase-1 (in words) (caspase-1): weaker but reasonable inhibitor of caspase-1
